Data published in patent US10662184B2, “Benzenesulfonamide compounds and their use as therapeutic agents” (Xenon Pharmaceuticals Inc., priority 2016, dated 2020).

Amino acid sequences for entries named in this document (tags omitted). Chains listed by the source or under a name are the forms on record and can include a tag or linker.
UniProt Q14524, other isoform, or with tags, fused parts or gaps: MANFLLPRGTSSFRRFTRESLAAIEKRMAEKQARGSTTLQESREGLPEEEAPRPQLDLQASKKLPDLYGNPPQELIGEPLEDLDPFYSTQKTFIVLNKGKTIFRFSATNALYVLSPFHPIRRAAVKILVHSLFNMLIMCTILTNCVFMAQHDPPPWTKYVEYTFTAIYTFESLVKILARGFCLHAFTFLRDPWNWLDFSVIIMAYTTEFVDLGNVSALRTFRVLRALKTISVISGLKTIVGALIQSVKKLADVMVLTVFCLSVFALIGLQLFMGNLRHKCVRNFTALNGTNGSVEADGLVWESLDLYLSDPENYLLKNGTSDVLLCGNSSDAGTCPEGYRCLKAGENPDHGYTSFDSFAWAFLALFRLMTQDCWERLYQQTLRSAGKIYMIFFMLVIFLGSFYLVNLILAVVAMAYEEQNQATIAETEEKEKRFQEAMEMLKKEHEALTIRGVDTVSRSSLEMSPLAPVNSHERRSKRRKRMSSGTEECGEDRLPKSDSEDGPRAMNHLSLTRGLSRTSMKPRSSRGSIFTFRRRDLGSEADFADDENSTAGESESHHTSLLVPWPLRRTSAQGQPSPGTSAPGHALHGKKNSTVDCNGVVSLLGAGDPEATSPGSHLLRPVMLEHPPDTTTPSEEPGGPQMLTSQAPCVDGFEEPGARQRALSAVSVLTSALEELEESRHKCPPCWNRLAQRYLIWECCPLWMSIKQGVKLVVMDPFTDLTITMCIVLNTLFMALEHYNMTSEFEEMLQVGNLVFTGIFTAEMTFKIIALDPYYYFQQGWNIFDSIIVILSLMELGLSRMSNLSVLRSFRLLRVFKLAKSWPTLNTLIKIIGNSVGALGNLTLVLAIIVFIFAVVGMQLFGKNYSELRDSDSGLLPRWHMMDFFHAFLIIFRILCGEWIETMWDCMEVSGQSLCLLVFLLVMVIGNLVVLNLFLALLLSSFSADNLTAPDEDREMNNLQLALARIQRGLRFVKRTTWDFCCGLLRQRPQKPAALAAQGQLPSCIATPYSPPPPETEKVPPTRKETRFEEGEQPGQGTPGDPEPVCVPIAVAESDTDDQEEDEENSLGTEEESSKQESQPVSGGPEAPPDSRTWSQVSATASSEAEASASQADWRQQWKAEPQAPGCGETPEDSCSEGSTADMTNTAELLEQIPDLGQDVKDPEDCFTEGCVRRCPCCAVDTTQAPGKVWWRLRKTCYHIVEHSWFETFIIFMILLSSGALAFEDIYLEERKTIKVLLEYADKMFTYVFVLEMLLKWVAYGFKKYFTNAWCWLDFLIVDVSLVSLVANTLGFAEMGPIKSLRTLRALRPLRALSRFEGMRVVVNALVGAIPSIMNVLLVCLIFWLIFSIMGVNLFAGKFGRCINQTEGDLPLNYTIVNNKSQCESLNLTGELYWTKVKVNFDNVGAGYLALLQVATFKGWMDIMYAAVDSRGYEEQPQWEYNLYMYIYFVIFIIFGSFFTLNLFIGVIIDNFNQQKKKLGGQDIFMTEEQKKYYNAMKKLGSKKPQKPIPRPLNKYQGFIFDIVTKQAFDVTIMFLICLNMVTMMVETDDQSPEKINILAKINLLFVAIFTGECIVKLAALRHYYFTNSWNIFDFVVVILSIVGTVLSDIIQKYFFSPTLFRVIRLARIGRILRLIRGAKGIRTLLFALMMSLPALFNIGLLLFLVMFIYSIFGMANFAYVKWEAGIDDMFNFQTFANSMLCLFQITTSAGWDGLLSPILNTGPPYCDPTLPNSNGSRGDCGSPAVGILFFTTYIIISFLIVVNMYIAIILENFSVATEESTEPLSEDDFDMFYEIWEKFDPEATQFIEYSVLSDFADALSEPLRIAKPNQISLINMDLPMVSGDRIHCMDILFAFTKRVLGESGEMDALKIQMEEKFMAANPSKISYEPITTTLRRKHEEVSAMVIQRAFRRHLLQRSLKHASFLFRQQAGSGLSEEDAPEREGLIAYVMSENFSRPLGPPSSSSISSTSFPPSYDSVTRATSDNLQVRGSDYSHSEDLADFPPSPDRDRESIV

Target: human NaV1.5 (Homo sapiens (Human), UniProt Q14524)
Assay: cell-based

In the case of `Cc1cccc(CN2CC[C@H](Oc3ccc(S(=O)(=O)Nc4nccs4)cc3Cl)[C@H](C)C2)c1` (relative stereo) [Example 9A, 3-chloro-4-((cis-3-methyl-1-(3-methylbenzyl)piperidin-4-yl)oxy)-N-(thiazol-2-yl)benzenesulfonamide], the IC50 is reported as 5.92 µM.
